Experimental data reported in paper PMC10404699, “SAMHD1 impairs type I interferon induction through the MAVS, IKKε, and IRF7 signaling axis during viral infection” (The Journal of Biological Chemistry, 2023).

Molecular target: T1, purified c-myc/DDK-tagged IKKε (inhibitor of nuclear factor kappa-B kinase epsilon) (human, UniProt Q14164 1-716)
T1 construct: also called recombinant IKKε; source: bought: Origene (TP312481); purified from HEK293T cells
T1 sequence (looked up): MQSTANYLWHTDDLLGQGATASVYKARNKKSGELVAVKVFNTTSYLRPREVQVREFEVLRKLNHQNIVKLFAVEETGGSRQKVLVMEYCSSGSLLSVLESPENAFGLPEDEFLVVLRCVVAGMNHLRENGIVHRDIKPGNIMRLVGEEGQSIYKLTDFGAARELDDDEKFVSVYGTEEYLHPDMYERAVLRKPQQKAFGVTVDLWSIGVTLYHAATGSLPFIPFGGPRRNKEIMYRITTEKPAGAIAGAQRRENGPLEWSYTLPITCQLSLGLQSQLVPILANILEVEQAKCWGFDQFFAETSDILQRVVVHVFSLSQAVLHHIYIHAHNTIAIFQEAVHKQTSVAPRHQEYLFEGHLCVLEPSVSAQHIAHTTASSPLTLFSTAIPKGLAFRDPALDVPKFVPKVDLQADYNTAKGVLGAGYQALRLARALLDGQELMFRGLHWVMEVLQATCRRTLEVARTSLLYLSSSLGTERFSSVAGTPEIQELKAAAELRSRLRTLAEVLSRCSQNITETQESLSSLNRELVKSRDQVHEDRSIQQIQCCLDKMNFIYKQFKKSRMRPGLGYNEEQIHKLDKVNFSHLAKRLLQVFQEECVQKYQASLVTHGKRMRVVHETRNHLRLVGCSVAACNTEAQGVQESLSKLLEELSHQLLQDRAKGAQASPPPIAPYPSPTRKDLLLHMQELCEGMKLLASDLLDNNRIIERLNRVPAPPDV
Experiment: pull-down; in vitro pull-down of purified recombinant proteins with an anti-SAMHD1 antibody, analyzed by immunoblot; performed as described in ref. 16
Details: both partners purified

binding result: binds
B1: recombinant N-terminal His-tagged full-length SAMHD1 (natural protein, human, UniProt Q9Y3Z3 1-626, looked up)
chain: MQRADSEQPSKRPRCDDSPRTPSNTPSAEADWSPGLELHPDYKTWGPEQVCSFLRRGGFEEPVLLKNIRENEITGALLPCLDESRFENLGVSSLGERKKLLSYIQRLVQIHVDTMKVINDPIHGHIELHPLLVRIIDTPQFQRLRYIKQLGGGYYVFPGASHNRFEHSLGVGYLAGCLVHALGEKQPELQISERDVLCVQIAGLCHDLGHGPFSHMFDGRFIPLARPEVKWTHEQGSVMMFEHLINSNGIKPVMEQYGLIPEEDICFIKEQIVGPLESPVEDSLWPYKGRPENKSFLYEIVSNKRNGIDVDKWDYFARDCHHLGIQNNFDYKRFIKFARVCEVDNELRICARDKEVGNLYDMFHTRNSLHRRAYQHKVGNIIDTMITDAFLKADDYIEITGAGGKKYRISTAIDDMEAYTKLTDNIFLEILYSTDPKLKDAREILKQIEYRNLFKYVGETQPTGQIKIKREDYESLPKEVASAKPKVLLDVKLKAEDFIVDVINMDYGMQEKNPIDHVSFYCKTAPNRAIRITKNQVSQLLPEKFAEQLIRVYCKKVDRKSLYAARQYFVQWCADRNFTKPQDGDVIAPLITPQKKEWNDSTSVQNPTRLREASKSRVQLFKDDPM
notes: also called recombinant FL SAMHD1; recombinant SAMHD1
